Source: patent publication US20120201826A1 (NOV IMMUNE S A, published 2012)

Legend:
[1] = target: T1, recombinant human RANTES (huRANTES, Peprotech) (human, UniProt P13501 24-91); experiment: SPR (Biacore 2000), 1E4 captured on anti-human IgG, chemokine as analyte, 25 C, 1:1 Langmuir fit
T1 construct: Bought protein (Peprotech); also called rhuRANTES; CCL5
T1 sequence: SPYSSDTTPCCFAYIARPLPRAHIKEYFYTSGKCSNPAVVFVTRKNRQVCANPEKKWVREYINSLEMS
Description: (§1) The affinity and binding kinetics of 1E4 on human RANTES and cynomolgus RANTES were characterized on a Biacore 2000 instrument (Biacore AB, Uppsala, Sweden). 433 RU (response unit) of a donkey anti-human IgG polyclonal antibody were immobilized by EDC/NHS chemistry on a C1 Biacore chip. This surface was used to capture antibody 1E4. The surface was regenerated after each cycle by injection of 10 mM glycine pH=2 at 30 μL/min, for 60s followed by 1 min. of stabilization time in HBS-EP buffer.
(§2) Binding was measured by passing either huRANTES (Peprotech, Rocky Hill NJ) or a NusA-fusion proteins of human RANTES (NusA-huRANTES) and Cynomolgus RANTES (NusA-cynoRANTES) at various concentrations. All proteins were diluted in the running buffer HBS-EP buffer (Biacore AB, Uppsala, Sweden). Injection was performed at 75 μl/min for 3 min. followed by 15 min. of dissociation time and the temperature was set at 25° C. […] Very similar values were obtained using huRANTES or the NusA-huRANTES fusion, but better response signals were obtained with the fusion protein due to its larger size that induces a better response on the Biacore.

[2] = target: T2, NusA-huRANTES fusion protein (human, UniProt P13501 24-91, biotinylated in vivo at the AviTag); experiment: as above
T2 construct: GenBank M21121 is printed for the human RANTES gene; also called NusA-Rantes; not shown: NusA fusion partner of expression plasmid pET43 (Novagen); Factor X protease cleavage site at the C-terminus of NusA; AviTag biotinylation site at the C-terminus of the chemokine
T2 sequence: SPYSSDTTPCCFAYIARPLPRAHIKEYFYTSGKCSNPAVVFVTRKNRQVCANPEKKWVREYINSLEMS
Description: as §1, §2

[3] = target: T3, NusA-cynoRANTES fusion protein (cynomolgus monkey, UniProt Q8HYQ1 24-91 (rhesus entry), biotinylated in vivo at the AviTag); experiment: as above
T3 construct: also called cynomolgus RANTES; not shown: NusA fusion partner of expression plasmid pET43 (Novagen); Factor X protease cleavage site at the C-terminus of NusA; AviTag biotinylation site at the C-terminus of the chemokine
T3 sequence: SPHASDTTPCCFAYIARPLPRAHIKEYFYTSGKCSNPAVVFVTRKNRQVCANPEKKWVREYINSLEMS
Description: as §1, §2

[4] = target: T4, mouse RANTES mutant [S16A/L17R/A18P], biotinylated in vivo (mouse, UniProt P30882 24-91, biotinylated in vivo at the AviTag); experiment: ELISA: biotinylated chemokine captured on Streptawell plate, 1E4 at 1 µg/ml, goat anti-human IgG Fc-gamma-HRP, TMB, OD450
T4 construct: also called [S16A/L17R/A18P] mutant; not shown: AviTag biotinylation site at the C-terminus
Description: (§3) In an ELISA, the antibody 1E4 binds with equivalent apparent affinity to both human and cynomolgus RANTES (FIG. 5). In order to identify residues potentially required on huRANTES for binding to 1E4, the RANTES protein sequences from several species were aligned as shown in FIG. 6. In the alignment, residues that are conserved between the human and cynomolgus sequences and that are different in mouse and rat RANTES to which 1E4 is unable to bind were analyzed to identify the following amino acids: A16, R17, P18, G32, P37, R59 and S64. Three mutants of mouse RANTES were generated by site directed mutagenesis in order to introduce the human residues at those positions: [S16A/L17R/A18P]; [S32G/L37P] and [Q59R/Y64S]. These mutant forms of mouse RANTES were expressed and biotinylated in vivo as described in Example 1. These variant of mouse RANTES were captured in streptavidin coated plates (Streptawell, Roche). The coating of the biotinylated chemokine was confirmed using a anti-mouse RANTES polyclonal antibody (R&D Systems). It was then tested whether the introduction of these residues could restore 1E4 binding to mouse RANTES. Briefly, mouse RANTES, human RANTES as well as three mutant forms of mouse RANTES and control supernatants were captured in Streptawell plates (Roche) for 30 minutes at room temperature. After washing, antibody 1E4 was added at a concentration of 1 μg/ml in 1% BSA-PBS and incubated for 1 hour at room temperature. The plate was washed and incubated with a goat anti-human IgG Fcγ-specific antibody coupled to horse radish peroxidase (Jackson). […] The plates were read at 450 nm.

[5] = target: T5, mouse RANTES mutant [S32G/L37P], biotinylated in vivo (mouse, UniProt P30882 24-91, biotinylated in vivo at the AviTag); experiment: as above
T5 construct: not shown: AviTag biotinylation site at the C-terminus
Description: as §3

[6] = target: T6, mouse RANTES mutant [Q59R/Y64S], biotinylated in vivo (mouse, UniProt P30882 24-91, biotinylated in vivo at the AviTag); experiment: as above
T6 construct: not shown: AviTag biotinylation site at the C-terminus
Description: as §3

koff [1]: 0.00244 s⁻¹
kon [1]: 5.36e+06 M⁻¹ s⁻¹
koff [2]: 0.000835 s⁻¹
kon [2]: 1.87e+06 M⁻¹ s⁻¹
koff [3]: 0.00122 s⁻¹
kon [3]: 5.46e+06 M⁻¹ s⁻¹
binding result [4]: binds
binding result [5]: no binding (tested: 1 µg/ml)
binding result [6]: no binding (tested: 1 µg/ml)
B1: 1E4 antibody, IgG1 format (antibody, V domains shown)
VH: QVQLVQSGAEVKKPGASVKVSCKVSGYTLTEFAMHWVRQAPGKGLEWMGGFVPEDGETIYAQKFQGRVTMTEDTSTDTAYMELSSLRSEDTAVYYCATDPLYEGSFSVWGQGTTVTVSS
VL: SYVLTQPPSVSVAPGQTARITCGGNNIESKSVHWYQQKPGQAPVLVVYDDSDRPSGIPERFSGSNSGNTATLTISRVEAGDEADYYCQVWDSNTDHWVFGGGTKLTVLG
notes: also called antibody 1E4 purified from CHO supernatant
